The numbers were not newly measured in patent publication US11136352B2, “Immunotherapy against several tumors including neuronal and brain tumors” (IMMATICS BIOTECHNOLOGIES GMBH, priority 2008, dated 2021), which cites them from elsewhere.

For this data set, the target named is HLA-A*0201 (Homo sapiens, UniProt P04439, /I218V/L300P/L318F/N151K/N90K/P208A/P217A/Q86G/Q94H/R138H/R169H/T345S). The conditions noted are these: known binder; cited from earlier work.

Regarding FLPSDFFPSV [HBV-001], the “Binding to A*02 (positive control)” value was “strong A*02 binder”.
